Patent publication US10280149B2, “Therapeutic compounds and uses thereof” (GENENTECH, INC., priority 2015, dated 2019)
Counter-ions that a name gives are not always drawn.

Protein sequences, listed by entry. Tags and fused reporters are not part of them. Lines headed by an entry give the natural chain unless they say otherwise; changes in a name come on top.
UniProt Q8NHM5: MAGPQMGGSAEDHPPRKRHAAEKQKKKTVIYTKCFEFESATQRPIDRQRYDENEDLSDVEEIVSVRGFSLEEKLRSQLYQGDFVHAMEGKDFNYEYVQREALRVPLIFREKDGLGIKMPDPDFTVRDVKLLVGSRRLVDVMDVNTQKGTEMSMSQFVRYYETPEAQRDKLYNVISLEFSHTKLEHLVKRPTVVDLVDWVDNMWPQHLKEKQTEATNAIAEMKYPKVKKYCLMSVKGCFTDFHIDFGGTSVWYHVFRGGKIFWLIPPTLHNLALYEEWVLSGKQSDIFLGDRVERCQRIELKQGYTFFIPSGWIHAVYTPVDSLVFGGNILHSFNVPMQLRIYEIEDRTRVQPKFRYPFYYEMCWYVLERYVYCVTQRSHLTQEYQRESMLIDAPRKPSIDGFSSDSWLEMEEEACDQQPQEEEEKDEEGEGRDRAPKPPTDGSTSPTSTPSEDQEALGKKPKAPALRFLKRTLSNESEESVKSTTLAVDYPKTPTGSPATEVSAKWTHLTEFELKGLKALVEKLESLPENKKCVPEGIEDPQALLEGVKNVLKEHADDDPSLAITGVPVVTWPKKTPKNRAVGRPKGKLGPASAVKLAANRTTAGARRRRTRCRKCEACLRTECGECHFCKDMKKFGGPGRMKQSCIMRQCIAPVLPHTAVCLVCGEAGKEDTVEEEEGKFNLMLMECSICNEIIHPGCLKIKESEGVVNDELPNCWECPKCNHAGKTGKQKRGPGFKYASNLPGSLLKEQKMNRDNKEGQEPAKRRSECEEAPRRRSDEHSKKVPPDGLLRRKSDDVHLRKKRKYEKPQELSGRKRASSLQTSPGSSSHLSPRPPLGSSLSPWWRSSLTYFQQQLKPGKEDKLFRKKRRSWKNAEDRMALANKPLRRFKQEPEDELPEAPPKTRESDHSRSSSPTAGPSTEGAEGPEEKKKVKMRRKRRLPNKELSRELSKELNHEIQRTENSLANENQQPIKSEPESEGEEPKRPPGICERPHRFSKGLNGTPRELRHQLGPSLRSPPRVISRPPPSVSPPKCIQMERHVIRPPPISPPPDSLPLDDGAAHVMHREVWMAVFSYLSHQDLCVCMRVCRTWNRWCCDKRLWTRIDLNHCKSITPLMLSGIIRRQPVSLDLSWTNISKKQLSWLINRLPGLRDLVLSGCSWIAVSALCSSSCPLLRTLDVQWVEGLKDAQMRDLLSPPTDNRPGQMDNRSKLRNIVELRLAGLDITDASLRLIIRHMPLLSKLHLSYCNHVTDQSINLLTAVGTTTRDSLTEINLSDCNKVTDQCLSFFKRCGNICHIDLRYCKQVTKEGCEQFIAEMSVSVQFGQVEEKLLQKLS

Target: Full length KDM2B (Homo sapiens (Human), UniProt Q8NHM5)
Assay: KDM2B TR-FRET assay for determining inhibitor IC50
Format: biochemical
Conditions: KDM2B HTRF IC50, TR-FRET (HTRF), biotin-H3K36me2 peptide substrate, 2-OG 0.3 μM or 6 μM
From the text: KDM2B TR-FRET Assay for Determining Inhibitor IC50
The KDM2B TR-FRET Assay described above represents an additional embodiment of the invention.

Structure (SMILES) | IC50
O=C(c1ccc2cc(-c3ccccn3)ccc2c1)C1CCCN(CC2CC2)C1 (stereo not drawn) [Example 168, (1-(cyclopropylmethyl)piperidin-3-yl)(6-(pyridin-2-yl)naphthalen-2-yl)methanone] | 182 nM

Same assay, conditions: TR-FRET (HTRF), biotin-H3K36me2 peptide substrate, 2-OG 0.3 μM or 6 μM; read-out: KDM2B HTRF IC50

Structure (SMILES) | IC50
Cc1ccc2cc(C(=O)C3CCCN(CC4CC4)C3)ccc2c1 (stereo not drawn) [Example 167, (1-(cyclopropylmethyl)piperidin-3-yl)(6-methylnaphthalen-2-yl)methanone] | 171 nM
O=C(c1ccc2cc(Br)ccc2c1)[C@@H]1CCCN(CC2CC2)C1 (stereo in doubt) [Example 131a, (6-bromonaphthalen-2-yl)(1-(cyclopropylmethyl)piperidin-3-yl)methanone] | 226 nM
CC(=O)Nc1ccc2cc(C(=O)C3CCCN(CC4CC4)C3)ccc2c1 (stereo not drawn) [Example 174, N-(6-(1-(cyclopropylmethyl)piperidine-3-carbonyl)naphthalen-2-yl)acetamide] | 1800 nM
O=C(c1ccc2cc(Br)ccc2c1)[C@H]1CCCN(CC2CC2)C1 (stereo in doubt) [Example 131b, (6-bromonaphthalen-2-yl)(1-(cyclopropylmethyl)piperidin-3-yl)methanone] | 181 nM
CN(C)c1ccc2cc(C(=O)C3CCCN(CC4CC4)C3)ccc2c1 (stereo not drawn) [Example 172, (1-(cyclopropylmethyl)piperidin-3-yl)(6-(dimethylamino)naphthalen-2-yl)methanone hydrochloride] | 316 nM
